Drawing on ChEMBL document CHEMBL3085743, “6-(1-Benzyl-1H-pyrrol-2-yl)-2,4-dioxo-5-hexenoic acids as dual inhibitors of recombinant HIV-1 integrase and ribonuclease H, synthesized by a parallel synthesis approach” (J Med Chem, 2013), this text covers IC50 for seven molecules.

Where only a bound is given, the exact number is not on record here.

This test addresses Human immunodeficiency virus type 1 integrase (Human immunodeficiency virus 1, UniProt Q7ZJM1).
Take `CCOC(=O)C(=O)CC(=O)/C=C/c1cccn1Cc1ccc(C)cc1`: the half-inhibitory concentration (IC50) is above 111 µM.
The value for `CCOC(=O)C(=O)CC(=O)/C=C/c1cccn1Cc1ccc(Cl)cc1` was 42 µM; that for `COc1ccc(Cn2cccc2/C=C/C(=O)CC(=O)C(=O)O)cc1` was 4.1 µM; that for `CCOC(=O)C(=O)CC(=O)/C=C/c1cccn1Cc1ccccc1` was 15 µM.
The value for `O=C(/C=C/c1cccn1Cc1ccccc1)CC(=O)C(=O)O` was 0.09 µM.
The figure for `Cc1ccc(Cn2cccc2/C=C/C(=O)CC(=O)C(=O)O)cc1` is 1.2 µM; for `CCOC(=O)C(=O)CC(=O)/C=C/c1cccn1Cc1ccc(OC)cc1` it is 110 µM.

What is called IC50 is the midpoint of a concentration-inhibition curve.
